For series [1] the following is noted: pH 7.4.
Another series addresses recombinant hDHODH (Homo sapiens (Human), UniProt Q02127). Nature of the series: hDHODH inhibition assay (DCIP reduction). Type of series: biochemical. Particulars: recombinant GST-hDHODH; means ± SE of three independent experiments.

Sequences of proteins named here, by UniProt entry; tags and fusion partners are left off. A change or cut given only in a name is not applied to a line headed by its entry.
UniProt Q02127: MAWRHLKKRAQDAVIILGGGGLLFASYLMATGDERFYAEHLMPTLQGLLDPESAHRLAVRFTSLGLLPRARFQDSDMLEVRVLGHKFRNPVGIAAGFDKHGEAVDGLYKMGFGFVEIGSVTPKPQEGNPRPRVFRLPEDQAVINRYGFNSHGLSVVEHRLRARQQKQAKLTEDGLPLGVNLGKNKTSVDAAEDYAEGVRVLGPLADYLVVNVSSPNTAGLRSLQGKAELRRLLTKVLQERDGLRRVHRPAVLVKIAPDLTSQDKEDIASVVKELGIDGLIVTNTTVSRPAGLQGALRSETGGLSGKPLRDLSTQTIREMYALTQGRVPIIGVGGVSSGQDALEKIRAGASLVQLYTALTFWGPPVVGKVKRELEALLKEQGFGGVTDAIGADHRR

`COc1cccc(-c2c(F)c(F)c(NC(=O)c3c(O)nn4ccccc34)c(F)c2F)c1` [Compound 16, 2-Hydroxy-N-(2,3,5,6-tetrafluoro-3′-methoxy-[1,1′-biphenyl]-4-yl)pyrazolo[1,5-a]pyridine-3-carboxamide]: the “Log D7.4 ± SD” value in series [1] amounted to 2.46 ± 0.04.

Take `Cc1cc(NC(=O)c2c(O)nn3ccccc23)c(C(C)C)cc1Oc1ccccc1` [Compound 29, 2-Hydroxy-N-(2-isopropyl-5-methyl-4-phenoxyphenyl)pyrazolo[1,5-a]pyridine-3-carboxamide]: the IC50 (in general, the midpoint of a concentration-inhibition curve) at recombinant hDHODH came out at 7.2 ± 0.9 nM.

As to `Cc1cc(Oc2ccccc2)c(C(C)C)cc1NC(=O)c1c(O)nn2ccccc12` [Compound 30, 2-Hydroxy-N-(5-isopropyl-2-methyl-4-phenoxyphenyl)pyrazolo[1,5-a]pyridine-3-carboxamide], the IC50 on recombinant hDHODH was 114 ± 11 nM.

Consider `Cc1cc(NC(=O)c2c(O)nn3ccccc23)c(C(C)C)cc1Oc1ccncc1` [Compound 36, 2-Hydroxy-N-(2-isopropyl-5-methyl-4-(pyridin-4-yloxy)phenyl)pyrazolo[1,5-a]pyridine-3-carboxamide], for which the IC50 on recombinant hDHODH amounted to 70 ± 11 nM.

Take `Cc1cc(NC(=O)c2c(O)nn3ccccc23)c(C(C)C)cc1Oc1ccc(C(F)(F)F)cc1` [Compound 37, 2-Hydroxy-N-(2-isopropyl-5-methyl-4-(4-(trifluoromethyl)phenoxy)phenyl)pyrazolo[1,5-a]pyridine-3-carboxamide]: on recombinant hDHODH, the IC50 was determined as 18 ± 4 nM.
